28 molecules from PubChem BioAssay AID624466 (The Scripps Research Institute Molecular Screening Center, 2012) can be followed below.

Sequences of proteins named here, by UniProt entry; tags and fusion partners are left off.
UniProt Q96RJ0, whole entry: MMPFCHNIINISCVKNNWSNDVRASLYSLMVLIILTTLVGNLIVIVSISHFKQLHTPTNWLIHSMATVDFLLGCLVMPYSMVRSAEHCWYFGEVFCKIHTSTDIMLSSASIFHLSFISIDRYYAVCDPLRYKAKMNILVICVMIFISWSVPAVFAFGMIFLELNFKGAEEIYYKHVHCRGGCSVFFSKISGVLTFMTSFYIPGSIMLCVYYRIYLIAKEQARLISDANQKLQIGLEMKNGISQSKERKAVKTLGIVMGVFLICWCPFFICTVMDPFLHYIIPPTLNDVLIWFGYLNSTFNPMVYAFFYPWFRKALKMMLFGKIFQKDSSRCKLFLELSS

The entries are a selection whose mix differs from that of the whole data set. Active and inactive are the calls of the source.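 Rule for the calls: active = inhibition above a per-plate cutoff, the mean inhibition of test compounds on that plate plus 3 SD (cut at about 49% in these data); inactive = the rest.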

For the test, the target named is Trace amine-associated receptor 1 (Homo sapiens) (UniProt Q96RJ0). Put plainly: blockers of beta-PEA-driven TAAR1 calcium signal – Fluo-8 calcium fluorescence, CHO RD-HGA16 cells, primary screen (AID 624466).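 Note: 0% = DMSO plus EC80 beta-PEA response and 100% = DMSO alone without agonist.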 Particulars: CHO RD-HGA16 TAAR1, Fluo-8 calcium fluorescence, antagonist; at 3 µM; stronger effect = higher value.
For orientation: inhibition means the relative decrease from the control value, in per cent. `Cc1cc(C)cc(OP(C)(=O)Nc2cccc(C(F)(F)F)c2)c1` (stereo not drawn): the inhibition was inactive: 8.65%. Under `O=C1C(O)=C([N+](=O)[O-])C(=O)C(O)=C1[N+](=O)[O-]` stands inactive: -22.1%; under `COc1ccc(OP(C)(=O)Nc2ccccc2Br)cc1` (stereo not drawn), inactive: -7.32%; under `COc1ccccc1OP(C)(=O)Nc1ccc(C)c(C)c1` (stereo not drawn), inactive: 5.56%. The result for `CP(=O)(OCCOc1ccccc1)OCCOc1ccccc1` reads inactive: -16.9%. `CCCCCCCCCCCCCCCC1C[N+](C)(C)CCOP(C)(=O)O1` (stereo not drawn): the inhibition is active: 54.1%.

As for `CP(=O)(Nc1ccc(Cl)cc1Cl)Oc1ccccc1` (stereo not drawn), the inhibition is inactive: -24.6%. The result for `COc1ccccc1OP(C)(=O)Nc1ccc(Br)cc1` (stereo not drawn) reads inactive: -15.6%; that for `CN(C)CCOC(=O)C(O)(c1ccccc1)C1CCCC1` (stereo not drawn), inactive: -11.2%.

For the molecule `COc1ccc(OP(C)(=O)Nc2ccccn2)cc1` (stereo not drawn), the inhibition is inactive: -2.97%. The result for `O=[N+]([O-])c1cc([N+](=O)[O-])c(Nc2ccccn2)c([N+](=O)[O-])c1` reads inactive: 4.44%.

As for `Cc1c(NP(C)(=O)Oc2ccc(C(C)C)cc2)c(=O)n(-c2ccccc2)n1C` (stereo not drawn), the inhibition was inactive: -1.97%. Under `CCc1ccc(OP(C)(=O)O)cc1` stands inactive: -9.42%; under `COc1ccccc1OP(C)(=O)Nc1ccc(C)cc1C` (stereo not drawn), inactive: -18.3%; under `CP(=O)(Nc1ccccn1)Oc1ccccc1` (stereo not drawn), inactive: 6.52%.

Consider `COc1ccc(OP(C)(=O)Nc2ccc(Br)cc2)cc1` (stereo not drawn), for which the inhibition was inactive: -3.36%. Under `CCN(CC)CC(O)COC(=O)C(O)(c1ccccc1)C1CCCCC1` (stereo not drawn) stands inactive: -2.33%; under `CCc1ccc(OP(C)(=O)Nc2cccnc2)cc1` (stereo not drawn), inactive: -38.8%; under `CP(=O)(Oc1ccccc1)N1CCOC1=O` (stereo not drawn), inactive: 4.34%. Under `O=C(OCCCN1CCCC1)C(O)(c1ccccc1)C1CCCCC1` (stereo not drawn) stands inactive: 6.95%; under `COc1ccccc1OP(C)(=O)Nc1c(C)n(C)n(-c2ccccc2)c1=O` (stereo not drawn), inactive: 6.85%.

As to `CP(=O)(Nc1ccc(Cl)cc1)Oc1ccc(F)cc1` (stereo not drawn), the inhibition was inactive: -2.26%. The result for `CC(C)(C)c1ccc(OP(C)(=O)O)cc1` reads inactive: 2.79%; that for `COc1ccccc1OP(C)(=O)Nc1ccccc1Br` (stereo not drawn), inactive: -1.34%; that for `CN(C)C(=O)c1c([N+](=O)[O-])cc([N+](=O)[O-])cc1[N+](=O)[O-]`, inactive: 8.46%.

Take `Nc1ccc2c(ccc3cccnc32)n1.O=[N+]([O-])c1cc([N+](=O)[O-])c(O)c([N+](=O)[O-])c1`: the inhibition was inactive: -4.02%. As to `CP(=O)(OC12CC3CC(CC(C3)C1)C2)OC12CC3CC(CC(C3)C1)C2`, the inhibition is inactive: -20.6%. Under `CCOC(=O)c1ccc(NP(C)(=O)Oc2ccc(Cl)cc2)cc1` (stereo not drawn) stands inactive: 8.03%.
